The test system of this series is NCCCC[C@H](N)C(=O)O. Put plainly: purified protein. The settings on record: 3 mM ATP, 15 mM MgCl2, 150 mM hydroxylamine, HEPES pH 7.5, 37 °C, 5 µM enzyme.

By Km is commonly meant the concentration of substrate that gives half-maximal velocity. The term Vmax denotes the rate approached at saturating substrate. As usually defined, the kcat is the number of substrate molecules converted per active site and unit of time at saturation. The term kcat/Km denotes the turnover number divided by the Michaelis constant. Regarding “PosA adenylation domain (Acinetobacter baumannii AB307-0294)”, the Km was 8.59 ± 0.68 mM, the Vmax was determined as 8.46 µM/min, the kcat amounted to 0.0282 s⁻¹ and the kcat/Km was found to be 3.28 M⁻¹ s⁻¹.
